Assay results reported in US20190343953A1, “ANTI-CANCER TREATMENTS WITH AN ANTI-MUC1 ANTIBODY AND AN ERBB INHIBITOR” (Glycotope GmbH, priority 2017, published 2019).

Experiments:
Format in all cases: cell-based, human
[1] = test system: cancer cells; experiment: Cytotoxicity assay of SeeloMab (PankoMab-ADC), statements for the cancer cells in general; conditions: pretreated for 3 days vs non-pretreated
Description: The cytotoxic potential of a TA-MUC1 targeting antibody drug conjugate (ADC) was investigated using SeeloMab, the ADC format of PankoMab with a microtubule inhibitor as toxin. Therefore, cells were pre-incubated for 3 days with an optimum concentration of EGFR inhibitor. […] After 3 days the antigen expression was confirmed by flow cytometry and cells were seeded at equal cell density (5000 cells/well) into the wells of a microtiter plate. Cells were incubated with different concentrations of SeeloMab, an isotype matched control ADC and unconjugated PankoMab served as negative control. After 4 days viability of the cells was measured using Celltiter-Glo Luminescent Cell Viability Assay (Promega) and percent proliferation was calculated relative to medium control.

[2] = test system: HSC4; experiment: Cytotoxicity assay of SeeloMab (PankoMab-ADC) after EGFR inhibitor pre-incubation, Celltiter-Glo; conditions: 3 days pre-incubation with 1 μM erlotinib, 0.1 μM afatinib or 10 μg/ml cetuximab, viability after 4 days
[3] = test system: DU145; experiment: as above; conditions: 3 days pre-incubation with 1 μM erlotinib, 0.1 μM afatinib or 10 μg/ml cetuximab, viability after 4 days

Substance: Cetuximab: anti-EGFR antibody, EGFR inhibitor
- reduction of proliferation by anti-TA-MUC1 ADC when cancer cells were pretreated with EGFR inhibitor [1]: significantly stronger
- Maximum IC50 ratio of EGFRi pretreated group compared to non-pretreated group [2]: 1.8
- Maximum IC50 ratio of EGFRi pretreated group compared to non-pretreated group [3]: 1.3
